Assay results published in patent US4256883A, “Pyridoza prostacyclin analogues and N-oxides thereof” (Research Corporation, priority 1979, dated 1981).

Experiment: t1/2 in saline at 25°
Conditions: 25° C.

With “7,8-dihydro-6,9-pyridaza prostacyclin [XXIII]” the “t1/2 Saline (25°)” value was greater than 24 h.
